The values below are quoted from earlier work in patent US20150132388A1, “COMPLEXES OF FULVESTRANT AND ITS DERIVATIVES, PROCESS FOR THE PREPARATION THEREOF AND PHARMACEUTICAL COMPOSITIONS CONTAINING THEM” (Druggability Technologies Holdings Limited, priority 2013, published 2015).

Sequences of proteins named here, by UniProt entry; tags and fusion partners are left off.
UniProt P03372, whole entry: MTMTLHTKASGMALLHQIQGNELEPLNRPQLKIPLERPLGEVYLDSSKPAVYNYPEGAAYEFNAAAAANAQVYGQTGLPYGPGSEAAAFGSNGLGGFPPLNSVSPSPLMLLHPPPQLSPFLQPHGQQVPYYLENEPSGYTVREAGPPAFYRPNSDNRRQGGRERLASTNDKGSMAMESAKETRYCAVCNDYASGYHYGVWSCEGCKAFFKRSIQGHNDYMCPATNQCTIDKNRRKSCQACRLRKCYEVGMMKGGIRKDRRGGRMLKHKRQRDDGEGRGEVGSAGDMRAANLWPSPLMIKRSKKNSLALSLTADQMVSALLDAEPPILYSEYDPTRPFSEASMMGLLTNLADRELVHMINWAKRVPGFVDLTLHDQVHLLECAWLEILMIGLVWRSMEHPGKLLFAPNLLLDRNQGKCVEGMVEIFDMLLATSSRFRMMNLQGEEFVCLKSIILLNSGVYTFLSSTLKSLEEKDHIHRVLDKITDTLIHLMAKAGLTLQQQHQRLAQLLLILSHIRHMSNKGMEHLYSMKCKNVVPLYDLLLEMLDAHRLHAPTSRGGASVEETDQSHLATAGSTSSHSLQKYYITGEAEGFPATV

The data set addresses estrogen receptor (Homo sapiens, UniProt P03372). Conditions: competitive binding; cited from earlier work.

On to “7-alpha-[9-(4,4,5,5,5-penta fluoropentylsulphinyl)nonyl]estra-1,3,5-(10)-triene-3,17 beta-diol [Fulvestrant]”, for which the “Affinity for the estrogen receptor” value is on record as “affinity comparable to that of estradiol”.
